Experimental data: ChEMBL document CHEMBL1157602, “Structural basis for platelet antiaggregation by angiotensin II type 1 receptor antagonist losartan (DuP-753) via glycoprotein VI” (J Med Chem, 2010)

Target: T1, Platelet glycoprotein VI (Homo sapiens, UniProt Q9HCN6)
T1 sequence (Q9HCN6 whole entry): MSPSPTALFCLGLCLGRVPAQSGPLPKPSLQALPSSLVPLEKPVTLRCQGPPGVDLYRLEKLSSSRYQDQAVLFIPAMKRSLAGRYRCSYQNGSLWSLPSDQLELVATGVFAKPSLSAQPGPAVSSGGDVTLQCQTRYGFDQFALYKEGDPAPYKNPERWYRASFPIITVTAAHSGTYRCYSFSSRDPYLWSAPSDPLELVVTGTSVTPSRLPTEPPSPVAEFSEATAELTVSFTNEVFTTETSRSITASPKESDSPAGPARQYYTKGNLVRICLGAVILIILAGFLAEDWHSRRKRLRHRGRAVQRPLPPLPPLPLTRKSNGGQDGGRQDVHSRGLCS
Experiment: Binding affinity to human N-terminal Ig-like domain D1D2 GPVI expressed in Escherichia coli DH5alpha by NMR spectroscopy

Kd: 170 µM
SMILES: CCCCc1nc(Cl)c(CO)n1Cc1ccc(-c2ccccc2-c2nn[nH]n2)cc1 [LOSARTAN]
